According to patent publication EP0762893B1, “TREATMENT OF PLASMA” (SUOMEN PUNAINEN RISTI VERIPALVELU, priority 1994, dated 1995):

Settings: 30 µmol/l of MB and 3 mmol/l of ascorbate at pH 3

Compound: CN(C)c1ccc2nc3ccc(=[N+](C)C)cc-3sc2c1 [MB, methylene blue]
- form of MB in concentrated solution: reduced to a nonabsorbing form
